This is an account of results in US9616063B2, “1-[2-(aminomethyl)benzyl]-2-thioxo-1,2,3,5-tetrahydro-4H-pyrrolo[3,2-d]pyrimidin-4-ones as inhibitors of myeloperoxidase” (AstraZeneca AB, priority 2014, dated 2017).

The chains behind the UniProt entries cited, without tags or fusion partners.
UniProt P05164, whole entry, looked up, stated change not applied: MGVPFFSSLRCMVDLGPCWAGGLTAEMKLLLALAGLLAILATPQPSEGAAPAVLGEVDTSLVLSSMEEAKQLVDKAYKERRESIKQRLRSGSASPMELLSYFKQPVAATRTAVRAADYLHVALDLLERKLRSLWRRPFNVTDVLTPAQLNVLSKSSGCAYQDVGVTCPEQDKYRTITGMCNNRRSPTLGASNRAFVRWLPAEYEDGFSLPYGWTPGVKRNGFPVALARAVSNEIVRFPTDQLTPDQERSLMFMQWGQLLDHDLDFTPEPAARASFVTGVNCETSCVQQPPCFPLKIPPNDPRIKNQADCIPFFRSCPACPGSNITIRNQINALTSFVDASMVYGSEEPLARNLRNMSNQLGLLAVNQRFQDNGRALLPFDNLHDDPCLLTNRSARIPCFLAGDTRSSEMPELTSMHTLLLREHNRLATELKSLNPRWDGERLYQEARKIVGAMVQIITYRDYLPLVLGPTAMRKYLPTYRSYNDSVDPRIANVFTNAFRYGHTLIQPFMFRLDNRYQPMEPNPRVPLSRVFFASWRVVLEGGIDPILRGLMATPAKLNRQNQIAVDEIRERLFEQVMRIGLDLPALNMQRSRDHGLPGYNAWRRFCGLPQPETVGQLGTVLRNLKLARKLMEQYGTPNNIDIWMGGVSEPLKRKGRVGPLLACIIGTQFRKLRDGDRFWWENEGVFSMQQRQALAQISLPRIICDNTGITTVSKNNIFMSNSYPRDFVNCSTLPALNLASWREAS

For this assay, the target named is MPO purified from the human cell line HL60 (Homo sapiens (Human), UniProt P05164). Briefly: MPO inhibition, Test A (loss of ascorbate, absorbance at 260 nm). It is filed as biochemical. The settings on record: absorbance at 260 nm 20 minutes after substrate addition. On the procedure:
Methods for the determination of MPO inhibitory activity are disclosed in WO 02/090575. The pharmacological activity of compounds disclosed herein was tested in the following screen (Test A) in which the compounds were tested in the presence of ascorbate, which reacts with MPO-derived hypochlorous acid (HOCl) to form dehydro-ascorbate. The loss of ascorbate is followed by measuring absorbance at 260 nm.
Assay buffer: 100 μM diethyl triamine pentaacetic acid (DTPA) in buffer consisting of 10 mM Na2HPO4/NaH2PO4, 3 mM KCl in 140 mM NaCl, pH 7.4.
Enzyme solution: MPO purified from the human cell line HL60, 1.38 nM (final concentration 0.7 nM) and L-ascorbate, 100 μM (final concentration 50 μM) in Assay buffer
Substrate solution: H2O2, 98 μM (final concentration 49 μM) Forty μL of the enzyme solution was added to 0.6 μL compound serially diluted in DMSO. Absorbance was measured at 260 nm to obtain a compound blank value. After an additional 10 min, 40 μL of the substrate solution was added and the absorbance at 260 nm was recorded between 4 and 40 min to obtain kinetic readings of enzyme activity.

With `NCc1cc(Cl)ccc1Cn1c(=S)[nH]c(=O)c2[nH]ccc21` [Example 7, 1-[2-(Aminomethyl)-4-chlorobenzyl]-2-thioxo-1,2,3,5-tetrahydro-4H-pyrrolo[3,2-d]pyrimidin-4-one], the IC50 – broadly, the point on the concentration scale where inhibition reaches its midpoint – is 15 nM.
